Source: patent US20240252654A1, “IMPROVED SMALL MOLECULES” (University of Dundee, priority 2020, published 2024)

Amino acid sequences for entries named in this document (tags omitted). A change or cut given only in a name is not applied to a line headed by its entry. Residues count along the entry.
UniProt Q15059, whole entry: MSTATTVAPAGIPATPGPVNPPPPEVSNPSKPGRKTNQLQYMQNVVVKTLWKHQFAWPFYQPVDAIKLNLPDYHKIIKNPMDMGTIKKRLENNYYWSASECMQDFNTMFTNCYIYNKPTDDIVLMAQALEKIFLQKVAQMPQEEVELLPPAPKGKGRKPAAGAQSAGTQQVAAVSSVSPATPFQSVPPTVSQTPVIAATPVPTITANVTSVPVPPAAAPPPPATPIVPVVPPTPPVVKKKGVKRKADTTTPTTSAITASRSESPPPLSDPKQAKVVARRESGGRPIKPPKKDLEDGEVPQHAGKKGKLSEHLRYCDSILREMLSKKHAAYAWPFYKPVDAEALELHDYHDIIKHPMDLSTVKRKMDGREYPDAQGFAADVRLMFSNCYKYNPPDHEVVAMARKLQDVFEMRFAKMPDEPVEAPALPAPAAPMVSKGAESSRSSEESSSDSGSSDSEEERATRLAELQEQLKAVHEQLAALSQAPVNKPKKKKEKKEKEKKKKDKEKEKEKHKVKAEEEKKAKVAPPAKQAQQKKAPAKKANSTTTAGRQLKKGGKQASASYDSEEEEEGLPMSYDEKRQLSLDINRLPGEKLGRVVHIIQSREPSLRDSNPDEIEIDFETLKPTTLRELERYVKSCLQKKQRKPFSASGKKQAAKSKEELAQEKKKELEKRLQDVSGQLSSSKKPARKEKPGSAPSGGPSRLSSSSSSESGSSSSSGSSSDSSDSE
UniProt P25440, whole entry: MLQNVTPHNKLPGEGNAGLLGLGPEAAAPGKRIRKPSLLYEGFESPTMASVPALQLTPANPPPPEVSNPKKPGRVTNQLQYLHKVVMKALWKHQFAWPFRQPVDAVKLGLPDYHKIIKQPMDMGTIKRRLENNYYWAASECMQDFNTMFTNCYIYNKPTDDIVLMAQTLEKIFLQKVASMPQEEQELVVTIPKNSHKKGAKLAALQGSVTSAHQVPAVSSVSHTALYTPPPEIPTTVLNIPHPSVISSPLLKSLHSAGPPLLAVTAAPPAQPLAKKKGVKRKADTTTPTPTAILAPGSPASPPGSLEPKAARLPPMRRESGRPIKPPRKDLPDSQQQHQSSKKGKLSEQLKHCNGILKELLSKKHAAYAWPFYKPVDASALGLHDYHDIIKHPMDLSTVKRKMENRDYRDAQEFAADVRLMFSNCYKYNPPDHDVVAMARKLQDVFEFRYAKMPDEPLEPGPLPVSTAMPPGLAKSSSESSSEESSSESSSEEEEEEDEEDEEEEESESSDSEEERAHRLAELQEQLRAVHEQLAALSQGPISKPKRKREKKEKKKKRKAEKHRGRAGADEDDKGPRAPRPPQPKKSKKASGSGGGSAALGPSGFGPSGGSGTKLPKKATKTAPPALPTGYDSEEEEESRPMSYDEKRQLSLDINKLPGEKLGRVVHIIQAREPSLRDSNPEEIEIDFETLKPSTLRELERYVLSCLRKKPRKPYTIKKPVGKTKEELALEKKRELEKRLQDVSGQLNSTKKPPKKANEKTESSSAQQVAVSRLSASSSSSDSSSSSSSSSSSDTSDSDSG
UniProt P40337, 54-213 limits assumed: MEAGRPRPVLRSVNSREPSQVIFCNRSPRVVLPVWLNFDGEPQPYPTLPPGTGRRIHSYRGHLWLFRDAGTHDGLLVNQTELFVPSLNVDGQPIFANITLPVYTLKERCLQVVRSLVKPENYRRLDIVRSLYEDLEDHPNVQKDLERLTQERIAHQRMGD

Columns and labels:
HiBiT-BRD3 = HiBiT-BRD3 (Homo sapiens, UniProt Q15059); assay: Live-cell kinetic degradation, CRISPR HiBiT-BRD3 HEK293 cells
[1] = tested on: HiBiT BET family members with VHL; assay: NanoBRET ternary complex kinetics, HiBiT-BET with HaloTag-VHL; assay type: cell-based, human; details: 100 nM
Protocol: Values are expressed as fold increase over DMSO control.
(§1) NanoBRET Ubiquitination, Ternary Complex, and Biosensor Experiments. For endogenous live cell BET:Ubiquitin and BET:VHL assays, CRISPR HiBiT-BRD2, HiBiT-BRD3, and HiBiT-BRD4 HEK293 cells stably expressing LgBiT were transfected with 2 μg of HaloTag-UBB or HaloTag-VHL vectors in 6-well plates using FuGENE HD (Promega). For full transient NanoBRET experiments with NanoLuc-BRD4 WT, N433F, or N140F mutants, HEK293 cells (8×10^5) were co-transfected with 0.02 μg NanoLuc-BRD4 and 2 μg of HaloTag-VHL vectors. For transient NanoBRET experiments with the BRD4 NL-BD1-BD2-HT biosensor containing either the WT tandem BD1-BD2 domain (AA 44-460) or containing the N433F mutation, HEK293 cells (8×10^5) were transfected with 0.02 μg biosensor plasmid and 2 μg carrier DNA. […] NanoBRET NanoGlo (Promega) substrate was added and BRET was measured two hours post-compound treatment using a GloMax Discover Microplate Reader (Promega). Dual filtered luminescence was collected with a 460/80 nm bandpass filter and a 610 nm long pass filter (acceptor, HaloTag NanoBRET ligand) using an integration time of 0.5 s. For all NanoBRET experiments, background subtracted NanoBRET ratios expressed in milliBRET units were calculated from the equation: […]

HiBiT-BRD2 = HiBiT-BRD2 (Homo sapiens, UniProt P25440); assay: Live-cell kinetic degradation, CRISPR HiBiT-BRD2 HEK293 cells
BRD4 N433F tandem = BRD4 N433F tandem (Homo sapiens, UniProt O60885+P40337, N433F); assay: ITC, BRD4 tandem titrated into SIM1:VCB; assay type: binding; details: 25° C.
BRD4 WT BD1-BD2 = BRD4 WT BD1-BD2 (Homo sapiens, UniProt O60885+P40337); assay: ITC, BRD4 tandem titrated into SIM1:VCB; assay type: binding; details: 25° C.
22Rv1 cells [2] = assay: PARP cleavage immunoblot in 22Rv1 cells; details: 22Rv1, 10 nM, 24 h (MT1, MZ1 up to 48 h)
MV4; 11 cells [3] = assay: Early and late apoptosis by Apotracker Green/DAPI flow cytometry; details: 1 nM, 24 h, versus tenfold higher (R,S)-SIM1, MZ1 or MT1
[4] = tested on: HiBiT-BRD2, BRD3, and BRD4; assay: Degradation washout experiment, CRISPR HiBiT-BET HEK293 cells; details: monitored 50 h
22Rv1 cells [5] = assay: Caspase-Glo 3/7 assay; details: read-out: EC50 (Caspase-Glo); 22Rv1, 24 h
MV4; 11 cells [6] = assay: Correlative cell viability in cMyc-HiBiT MV4;11 cells (CellTiter-Glo); details: 1 nM, after 6 h
HiBiT-BRD4 [7] = biological target: T1, HiBiT-BRD4 (Homo sapiens, UniProt O60885); assay: Live-cell kinetic degradation, CRISPR HiBiT-BRD4 HEK293 cells
22Rv1 cells [8] = assay: Clonogenic (colony-formation) assay; details: 10 nM for 24 h, re-plated, 20 days
[9] = tested on: VHL and full-length BRD4 WT, N140F, or N433F; assay: Kinetic NanoBRET ternary complex assay, NanoLuc-BRD4 with HaloTag-VHL
VCB = VCB (Homo sapiens, UniProt O60885+P40337); assay: SPR binding to immobilized biotinylated VCB
[10] = tested on: BRD2(1,2), BRD3(1,2), BRD4(1,2) and full-length BRD4; assay: Phage-based bromodomain displacement assay (BROMOscan)
[11] = tested on: HiBiT-BET proteins with HaloTag-Ubiquitin; assay: NanoBRET ubiquitination kinetics; assay type: cell-based, human
Protocol: Shown in FIG. 2e, the kinetic increase in cellular ubiquitination was more robust for BRD2 as compared to BRD3 and BRD4 after a treatment with 10 nM of compound SIM1.
as §1

[12] = tested on: BRD2, BRD3, BRD4 and Myc in 22Rv1 prostate cancer cell line; assay: Immunoblot of BET proteins and cMyc in 22Rv1 cells; details: 4 h, compared to MZ1, ARV-771, MT1 and cis-SIM1
HiBiT-BRD4 [13] = biological target: T1, HiBiT-BRD4; assay: NanoBRET target engagement, permeabilized and live cells; assay type: cell-based

SMILES: Cc1ncsc1-c1ccc(CNC(=O)[C@@H]2C[C@@H](O)CN2C(=O)[C@@H](NC(=O)COCC(C)(COCCOCCOCCNC(=O)C[C@@H]2N=C(c3ccc(Cl)cc3)c3c(sc(C)c3C)-n3c(C)nnc32)COCCOCCOCCNC(=O)C[C@@H]2N=C(c3ccc(Cl)cc3)c3c(sc(C)c3C)-n3c(C)nnc32)C(C)(C)C)cc1
- increase in degradation potency (Dmax50) versus ARV-771 and MZ1 (HiBiT-BRD3): 2-35 ×
- ternary complex formation compared to MZ1 [1]: more robust and sustained ternary complex was observed for BRD2 and BRD4
- increase in degradation potency (Dmax50) versus ARV-771 and MZ1 (HiBiT-BRD2): 80-300 ×
- ΔH (BRD4 N433F tandem): -11.6 kcal/mol
- ΔH (BRD4 WT BD1-BD2): -20 kcal/mol
- PARP cleavage / cell death (22Rv1 cells [2]): Substantial cell death
- early and late apoptosis induction (MV4; 11 cells [3]): much greater degree of both early and late apoptosis
- BET protein level after washout ([4]; 10 nM for 3.5 h then washout): partial recovery
- BET protein level after washout ([4]; 100 nM for 3.5 h then washout): remained at constant low levels after washout
- EC50 (22Rv1 cells [5]): 2 nM
- measurable cellular death (MV4; 11 cells [6]): measurable cellular death after 6 h
- increase in degradation potency (Dmax50) versus ARV-771 and MZ1 (HiBiT-BRD4 [7]): 10-20 ×
- cytotoxicity in colony-formation assay (22Rv1 cells [8]): significant cytotoxicity
- ternary complex formation ([9]; BRD4 N140F mutation): markedly reduced
- ternary complex formation ([9]; BRD4 N433F mutation): almost abolished
- ternary complex formation ([9]; BRD4 WT): rapidly formed
- % Rmax (VCB; SIM1:BD1-BD2, 1:1 binding model): 64.7±2.3%
- % Rmax (VCB; SIM1 alone): 77%
- t1/2 (VCB; ternary complex dissociative half-life): 1.98 ± 0.35 min
- affinity to tandem bromodomain constructs [10]: picomolar affinity
- increase in affinity compared to (R,S)-SIM1 [10]: 50-90 ×
- kinetic increase in cellular ubiquitination ([11]; 10 nM): more robust for BRD2 as compared to BRD3 and BRD4
- levels of ubiquitination compared with MZ1 ([11]; 100 nM): higher levels of ubiquitination of all BET family members
- BET degradation potency and cMyc level suppression [12]: enhancement in BET degradation potency and cMyc level suppression activity
- cell permeability (HiBiT-BRD4 [13]; inferred from live versus permeabilized cells): readily cell-permeable
- binding to endogenous HiBiT-BRD4 (HiBiT-BRD4 [13]; permeabilized cells): near-identical binding affinities and IC50 values
- IC80 (HiBiT-BRD4 [13]; read-out: IC80 for tracer displacement, live cell format, unit given with each value): 1000 nM
